Reference: patent EP2226633A1

Molecular target: heterodimeric LIF receptor (murine gp130 and LIFRα) on transiently transfected Ba/F3 cells (mouse) (UniProt Q00560)
Experiment: cell-based or functional assay

drop of proliferation rate of M1 cells (MTT assay, three days, 50 ng/ml mLIF combined with EPO variants): 30 to 55%
Substance: murine LIF, unlabelled (from UniProt P09056 24-203) (ligand)
